How the values were obtained:
[1] = test system: LN-229 cells; test: Neutral comet assay; type: cell-based; settings: pre-treatment, then 6 Gy; low EGFR expressing
Description: (§1) Cells were harvested 15 minutes post IR, suspended in agarose gel and lysed per assay directions (Trevigen). Samples underwent electrophoresis under neutral conditions and were then stained with Sybr Green. Comet tails were counted in multiple fields (>60 cells per sample) and analyzed using CometScore (TriTek Corp).

[2] = test system: CAL-27 cells; test: Cy5 fluorescence imaging and flow cytometry cell binding; type: cell-based, Human; settings: for cell surface binding (Cy5, flow cytometry): 0-5 nM on ice 15 minutes
Description: (§2) Cells were then washed with PBS and incubated in media with 10% serum. At indicated times, cells were fixed in 4% paraformaldehyde and then stained with DAPI. Cells were imaged using a Nikon AIR confocal microscope.
(§3) Cells were collected and resuspended in cold PBS with 5% BSA. […] Cells were washed, resuspended in PBS with 5% BSA and 0.5 ug/ml propidium iodide, and analyzed by flow cytometry.

[3] = test system: CAL-27 cells; test: Clonogenic assay with IR; type: cell-based, Human; settings: for surviving fraction at 2 Gy: cetuximab-MMAE-Cy5 0.5 nM or 2 nM, cetuximab-Cy5 2 nM, overnight
Text: Following IR, cells were counted, re-plated at varying cell numbers in drug free media. 10-14 after initial seeding formed colonies were methanol fixed, stained with crystal violet and counted.

[4] = test system: SCC-35 cells; test: Alamar Blue cell viability assay; type: cell-based, Human; settings: 72 hours
Description: (§4) Alamar Blue (resazurin) was added to the cells and allowed to incubate for 2 hrs at 37° C. Plates were analyzed using a plate reader with fluorescence measured at 560 nm.

[5] = test system: SCC-61 cells; test: Alamar Blue cell viability assay; type: cell-based, Human; settings: 72 hours
Description: as §4

[6] = test system: CAL-27 cells; test: Alamar Blue cell viability assay; type: cell-based, Human; settings: 72 hours
Description: as §4

[7] = test system: SQ-9G cells; test: Alamar Blue cell viability assay; type: cell-based, Human; settings: 72 hours
Description: as §4

[8] = test system: CAL-27 cells; test: Neutral comet assay; type: cell-based, Human; settings: for comet tail length vs vehicle: non-irradiated cells, overnight treatment; for comet tail length in irradiated cells vs vehicle irradiated: overnight treatment (cetuximab-Cy5 5 nM), then 6 Gy
Description: as §1

[9] = test system: Cal-27 GFP flank tumors; test: Frozen block face imaging of Cy5 localization; type: in vivo, mice; settings: cetuximab-Cy5 5 nanomoles 24 hr; RACPP 10 nanomoles 2 hr
Text: Both sets of tumors were flash frozen in liquid N2 and imaged using the frozen block face technique. Green is GFP expressed in the tumor cells, magenta is Cy5 fluorescence. Magenta is used for the benefit of colorblind referees: see Wong (2011) Nature Methods 8: 441. A) and C) are lower magnification images that show labeling of the tumor cells (T) in the context of stroma (S) and surrounding normal muscle (M).
Frozen block face imaging will give fluorescence maps of where the Cy5-labeled mAb or ACPP is ending up in a tumor and its surrounding tissue with minimal perturbation or manipulation to signal. The tissue is fresh-frozen, fast enough to minimize cellular damage, so there is no perfusion or fixation artifact, allowing the signal in the blood and vessels to be preserved. A block face is cut, up to a centimeter across, and imaged on a Nikon confocal microscope while still frozen, while keeping the objective thermal insulation. We already have multiple tumor models with GFP and intend to label others with a red FP, allowing for easy visualization on both a macro and a micro scale. […] See, FIG. 46A-D for an exemplary comparison of Cy5 fluorescence showing different localizations of a mAb, cetuximab, vs. our standard ACPP ((SEQ ID NO:4) PLGC(Me)AG Cy5/Cy7-labeled RACPP). […]

[10] = test system: CAL-27 tumor xenografts; test: In vivo tumor xenograft growth with or without IR; design: species or system mice; settings: for tumor growth, non-irradiated tumors: day 0 iv: 0.5 nmoles antibody or 2 nmoles free MMAE, no IR
Description: CAL-27 tumor xenografts were established and tumor growth was measured with digital calipers. Tumor volume was calculated using the formula as ½*Length*Width^2. Mice were randomized into groups once the average tumor volume reached >150 mm^3. Mice were assigned to indicated groups in the Results. […] Free MMAE was injected on an equimolar basis to ACPP-cRGD-MMAE in final volume of 3% DMSO. MMAE doses and IR fractionation are as indicated in the Results.

[11] = test system: LN-229 cells; test: Alamar Blue cell viability assay; type: cell-based; settings: concentrations of up to 100 nM, 72 hours
Description: (§5) Cells were plated in 96 well plates and exposed to a range of concentrations of MMAE or paclitaxel for 72 hrs. Alamar Blue (resazurin) was added to the cells and allowed to incubate for 2 hrs at 37° C. Plates were analyzed using a plate reader with fluorescence measured at 560 nm.

[12] = test system: LN-229 cells; test: Cy5 fluorescence cell binding; type: cell-based; settings: low EGFR-1 expression
Description: as §2, §3

[13] = test system: HCT-116 cells; test: Alamar Blue cell viability assay; type: cell-based, Human; settings: 72 hours
Description: Cells were plated in 96 well plates at varying cell densities and exposed to range of concentrations of MMAE or paclitaxel for 72 hrs. Alamar Blue (also known as resazurin) was added to the cells and allowed to incubate for 2 hrs at 37° C. Plates were analyzed using a plate reader with fluorescence measured at 560 nm. For irradiated cells, cells were treated with MMAE overnight followed by 6 Gy.
as §5
Cells were plated in 96-well plates and exposed to MMAE or paclitaxel for 72 hours and analyzed at 560 nm. For irradiated cells, cells were treated with MMAE overnight followed by 6 Gy.

[14] = test system: LN-229 tumor xenografts; test: In vivo tumor xenograft optical imaging (Cy5); design: species or system mice; settings: 0.5 nmoles iv; low EGFR expressing
Description: (§6) All animal work was done in compliance with the UCSD Institutional Animal Use and Care Committee. 6-8 week old female athymic nu/nu mice purchased from the UCSD Animal Care Program breeding colony were injected subcutaneously into the bilateral upper thighs with 5×10^6 CAL-27, SQ9-G, SCC-35, SCC-61, A549, HCT-116 or LN-229 tumor cells in a 1:1 Matrigel (BD) and PBS solution. […] For imaging, mice were anesthetized (1:1 mixture of 100 mg/ml of ketamine and 5 mg/ml of midazolam). Animals were imaged using a Maestro Small Animal Imager (CRI) with excitation filter of 620/22 nm and 645 nm long pass emission filter with dichroic filter tuned to 670 nm. Imaging was done both with skin on and after skin removal to decrease autofluorescence and scattering.

[15] = test system: CAL-27, SCC-61, SCC-35, SQ-9G, A549 and HCT-116 tumor xenografts; test: In vivo tumor xenograft optical imaging (Cy5); design: species or system mice; settings: 0.5 nmoles iv; for persistence / retention in tumor xenografts: Cy5 fluorescence
Description: as §6

[16] = test system: CAL-27 tumor xenografts; test: Immunohistochemistry for pS10 histone H3; type: in vivo, mice; settings: harvested 1 day after injection
Text: Xenograft tumor tissue was fixed in formalin, processed, and embedded in paraffin wax. Four micron thick tissue sections were cut and mounted on positively-charged glass slides. The tissue was then stained with H&E and an antibody to pS10 histone H3 using a Ventana Discovery Ultra (Ventana Medical Systems). The primary antibody was used at a 1:250 dilution and was visualized using DAB as a chromagen with the UltraMap system (Ventana Medical Systems).

[17] = test system: SQ-9G, SCC-35 and SCC-61 cells; test: Confocal microscopy binding and internalization; type: cell-based, Human; settings: 4 hrs following exposure
Description: as §2

[18] = test system: A549 cells; test: Alamar Blue cell viability assay; type: cell-based, Human; settings: 72 hours
Description: as §5

[19] = test system: SCC-25 cells; test: Neutral comet assay; type: cell-based, Human; settings: overnight treatment, then 6 Gy
Description: as §1

[20] = test system: SQ-9G cells; test: Neutral comet assay; type: cell-based, Human; settings: overnight treatment, then 6 Gy
Description: as §1

[21] = test system: HCT-116 cells; test: Flow cytometry cell surface binding; type: cell-based, Human; settings: live cells, on ice
Description: as §3

[22] = test system: A549 cells; test: Flow cytometry cell surface binding; type: cell-based, Human; settings: live cells, on ice
Description: as §3

[23] = test system: CAL-27 cells; test: Cell cycle analysis by flow cytometry (PI); type: cell-based, Human; settings: 5 nM, 24 hrs
Description: Cells were treated with RNAse, stained with propidium iodide (PI) and analyzed by FACS using FloJo software.

## cetuximab-Cy5
[1]
  comet tail length in irradiated cells vs vehicle irradiated: no further increased comet tail length
[2]; 2 nM at 37°
  intracellular persistence of Cy5 fluorescence: ≥ 48 h
[2]; 2 nM at 37°, by 2 hrs
  Cy5 fluorescence localization: localized to the cell surface and was internalized
[3]
  surviving fraction at 2 Gy: did not affect survival of irradiated cells
[4]; dose above 10 nM
  sensitivity of cells: modest sensitivity
[5]; doses up to 100 nM
  sensitivity of cells: relatively resistant
[6]; dose of 10 nM
  effect on cell survival: minimal effect on cell survival
[6]; doses up to 100 nM
  sensitivity of cells: relatively resistant
[7]; dose above 10 nM
  sensitivity of cells: modest sensitivity
[8]
  comet tail length vs vehicle: no significant increase in comet tail length
  comet tail length in irradiated cells vs vehicle irradiated: not significantly enhanced
[9]
  localization within tumor (Cy5): homing to EGFR expressing tumor cells
[10]
  tumor growth, non-irradiated tumors: delayed tumor growth
[11]
  effect on cell viability: no appreciable effect on cell viability

## cetuximab-MMAE-Cy5: cetuximab conjugated to MMAE via valine-citrulline linker and to Cy5
[12]
  cell binding (Cy5): did not bind appreciably
[13]
  IC50 higher than that of free MMAE: up to 100 fold
[1]
  comet tail length in irradiated cells vs vehicle irradiated: no further increased comet tail length
[2]
  cell surface binding (Cy5, flow cytometry): dose dependent manner
[2]; listed as cetuximab-MMAE
  cell surface binding (Cy5, flow cytometry): continued dose responsive cell surface binding
[14]
  tumor Cy5 signal: did not
[15]
  tumor Cy5 signal: strong Cy5 signal
  persistence / retention in tumor xenografts: 72 h
[15]; listed as cetuximab-MMAE-IR
  persistence / retention in tumor xenografts: at least 48 hrs
[16]
  increase in staining for pS10 histone H3 compared to cetuximab-Cy5: 75%
[3]; 2 nM overnight, then 0-6 Gy
  clonogenic cell survival curve: significantly decreased the surviving fraction
[3]
  surviving fraction at 2 Gy: significantly decreased
[17]
  binding and internalization: internalized
[18]
  IC50 higher than that of free MMAE: up to 100 fold
[4]
  IC50: 0.6 nM
[5]
  IC50: 1.2 nM
[7]
  IC50: 0.2 nM
[19]
  comet tail length in irradiated cells: significantly increased comet tail length
[8]
  comet tail length vs vehicle: no significant increase in comet tail length
  comet tail length in irradiated cells vs vehicle irradiated: significantly increased comet tail length
[20]
  comet tail length in irradiated cells: significantly increased comet tail length
[21]
  cell surface binding (Cy5 fluorescence) compared with CAL-27: decreased Cy5 cell surface fluorescence
[22]
  cell surface binding (Cy5 fluorescence) compared with CAL-27: decreased Cy5 cell surface fluorescence
[10]; 0.5 nmoles day 0, 3 Gy on day 1 and 2
  tumor xenograft growth delay with addition of IR: increased tumor xenograft growth delay
[10]
  tumor growth, non-irradiated tumors: further increased
[10]; non-irradiated mice
  tumor volume vs cetuximab and MMAE co-delivery: non-significant decrease in tumor volume
[11]
  effect on cell viability: no appreciable effect on cell viability

## cetuximab: therapeutic EGFR antibody
[23]
  cells in G2/M: 14%

Reference: US10596259B2, “Tumor radiosensitization with monomethyl auristatin E (MMAE) and derivatives thereof” (The Regents of the University of California, priority 2015, dated 2020)
